# In PubChem BioAssay AID651819 (National Center for Advancing Translational Sciences (NCATS), 2012):
# Only a part is listed here, and it is no random draw. Some tests of the compounds listed are not included; inactive here does not mean inactive elsewhere. Calls of active or inactive are those of the source. Cut-off read from the data, not from the text of the source: active = activity change below about -30%; inactive = the rest.
# Tested on: cytosolic chaperonin (CCT/TRiC complex)
# Experiment: High-Throughput Screening for Modulators of Cytosolic Chaperonin Activity
# Conditions: purified chaperonin ATPase assay, HTRF ADP detection, 30 min; stronger effect = lower value
# Excerpt: The eukaryotic chaperonin named TRiC (for TCP-1 ring complex), also called CCT (for chaperonin containing TCP1), is an essential and conserved chaperone required for the folding and activation of 10-15% of the proteins encoded by the human genome. […] Despite its central role in cellular folding, little is known about TRiC mechanism and mode of substrate binding. Currently, no specific TRiC inhibitors are available. Given the early promise of other chaperone-directed inhibitors as cancer therapeutics (e.g. HSP90 inhibitors), inhibitors of TRiC activity may also selectively target transformed cells and have potential use as therapeutics for cancer.
# To this end, a miniaturized assay was developed to screen against the Molecular Libraries Small Molecule Repository (MLSMR).
# NIH Chemical Genomics Center [NCGC]
# NIH Molecular Libraries Probe Centers Network [MLPCN]
# Assay Submitter (PI): Judith Frydman, Stanford University
# 1.5 uL/well TRiC enzyme suspended in buffer (30 mM TRIS pH7.4, 100 mM KCl, 5 mM MgCl2, 1 mM DTT) was added with BioRAPTR FRD dispenser at 40 nM or 20 nM (based on the enzymatic activity of used batches) final concentration to a white solid bottom medium binding 1536-well plate (Greiner Bio-One, Monroe, NC), and quickly spanned down. 23 nl/well of compound solutions in DMSO were added with a pintool transfer (Kalypsis, San Diego, CA) at a single 76 uM final concentration. Next, 1.5 µl/well ATP was dispensed with BioraptR at 10 uM final concentration after which the plates were incubated at 37 deg C for 30 min. HTRF(R) Transcreener(R) ADP (Cisbio US, Bedford, MA) detection reagents were prepared accordingly to the protocol and dispensed into the plate (1.5 uL/well each), incubated for 30 min at ambient temperature. Then, the plates were read using Envision reader with excitation at 330nm and emission at 615nm (Eu(3)-Cryptate donor signal) and 665nm (d2 acceptor signal). The ratio of […] was calculated for each well.
# % is set by controls: 0 for no effect and ±100 for the full control effect.
row,SMILES,activity change
1,COc1ccc(C(=O)NCC2(N(C)C)CCCCC2)cc1,inactive: -2.96%
2,O=C(NCC1(N2CCCCC2)CCCCC1)c1cccc(Br)c1,inactive: 1.02%
3,CCN1CCCC(OC(=O)C2(O)c3ccccc3C=Cc3ccccc32)C1 (stereo unspecified),inactive: -0.354%
4,Cc1cc(C(=O)NCC2(N3CCCCC3)CCCCC2)ccc1[N+](=O)[O-],inactive: 0.763%
5,O=C(NCC1(N2CCCCC2)CCCCC1)c1cc(F)c(F)cc1Cl,inactive: 0.185%
6,C=CCN1CCN(CCOC(=O)C(O)(c2ccccc2)c2ccccc2)CC1,inactive: -3.06%
7,CN(C)c1ccc(C(=O)NCC2(N(C)C)CCCCC2)cc1,inactive: 2.03%
8,CN(C)C1CCCC1OC(=O)C(O)(c1ccccc1)c1ccccc1 (stereo unspecified),inactive: -0.379%
9,Cc1ccccc1C(=O)NCC1(N2CCCCC2)CCCCC1,inactive: -2.15%
10,Cc1ccc(C(=O)NCC2(N3CCCCC3)CCCCC2)cc1,inactive: 0.416%
11,COc1cc(SC)ccc1C(=O)NCC1(N(C)C)CCCCC1,inactive: -0.744%
12,CCN(CC)CC(C)C(C)OC(=O)C(O)(c1ccccc1)c1ccccc1 (stereo unspecified),inactive: -0.826%
13,CC(C)N1C(=O)CC2(CCN(CCOC(=O)C(O)(c3ccccc3)c3ccccc3)CC2)C1=O,inactive: 0.719%
14,CN1[C@@H]2CC[C@H]1CC(OC(=O)C(O)(c1ccccc1)c1ccccc1)C2 (stereo partly specified),inactive: -8.02%
15,O=C(NCC1(N2CCCCC2)CCCCC1)c1cc([N+](=O)[O-])ccc1Cl,inactive: -2%
16,O=C(OCCN1CCCC1)C(O)(c1ccccc1)c1ccccc1,inactive: -6.88%
17,CC(C)Oc1ccc(C(=O)NCC2(N(C)C)CCCCC2)cc1,inactive: -0.656%
18,CN(C)c1cccc(C(=O)NCC2(N(C)C)CCCCC2)c1,inactive: 0.734%
19,C=C(C)C#CC(O)(C(=O)OC1CCN(C)CC1)c1ccccc1 (stereo unspecified),inactive: -1.1%
20,COc1ccc(Br)c(C(=O)NCC2(N3CCCCC3)CCCCC2)c1,inactive: 2.63%
21,O=C(OC1CN2CCC1CC2)C(CO)(c1ccccc1)c1ccccc1 (stereo unspecified),inactive: -1.82%
22,O=C(NCC1(N2CCCCC2)CCCCC1)c1cccc(Cl)c1,inactive: -1.39%
23,COc1ccc(Cl)cc1C(=O)NCC1(N(C)C)CCCCC1,inactive: -1.03%
24,COc1cccc(C(=O)NCC2(N3CCCCC3)CCCCC2)c1,inactive: 1.46%
25,COc1cc(C(=O)NCC2(N(C)C)CCCCC2)c([N+](=O)[O-])cc1OC,inactive: -2.47%
26,CN(C)C1(CNC(=O)c2ccc(Br)cc2)CCCCC1,inactive: -0.114%
